Literature values in US7838561B2, “Method for preventing or treating cardiac hypertrophy” (Wisconsin Alumni Research Foundation, priority 2004, dated 2010).

System: RARs

Cc1ccc(C2=CCC(C)(C)c3ccc(C(=O)Nc4ccc(C(=O)O)cc4)cc32)cc1
Receptor Specificity: RARαβγ
